The chains behind the UniProt entries cited, without tags or fusion partners.
UniProt P21453, whole entry: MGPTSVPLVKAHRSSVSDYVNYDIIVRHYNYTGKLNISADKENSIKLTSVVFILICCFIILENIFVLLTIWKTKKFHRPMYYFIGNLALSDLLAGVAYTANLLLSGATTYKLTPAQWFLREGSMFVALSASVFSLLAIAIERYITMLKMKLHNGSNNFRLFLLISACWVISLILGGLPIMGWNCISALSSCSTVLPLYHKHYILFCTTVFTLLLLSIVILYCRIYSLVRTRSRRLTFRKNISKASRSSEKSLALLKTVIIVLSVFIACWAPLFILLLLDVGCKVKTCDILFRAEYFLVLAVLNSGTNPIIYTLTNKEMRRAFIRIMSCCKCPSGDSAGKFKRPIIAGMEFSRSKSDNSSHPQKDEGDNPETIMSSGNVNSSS

In patent publication US8580824B2, “Pyridin-4-yl derivatives as immunomodulating agents” (Actelion Pharmaceuticals Ltd., priority 2006, dated 2013):

Molecular target: recombinant human S1P1 receptor (Homo sapiens, UniProt P21453)
Experiment: GTPγS assay to determine EC50 values
Format: biochemical
Conditions: agonistic activity; membrane preparations of CHO cells expressing recombinant human S1P1 receptor; 35S-GTPγS binding

## CCc1cc(-c2nc(-c3cc(C)c(OC[C@@H](O)CO)c(C)c3)no2)cc(C)n1
  EC50: 2 nM
